Assay results as given in article PMC3661926 (Acta Neuropathologica, 2013).

Tested on: (Thy1)-h[A30P]α-syn mice
Assay: Transgenic α-synuclein mouse model

## Brc1cccc(-c2cc(-c3ccc4c(c3)OCO4)n[nH]2)c1 [anle138b, 3-(1,3-benzodioxol-5-yl)-5-(3-bromophenyl)-1H-pyrazole]
A30P-hum-α-syn transgenic mice, oral in DMSO/peanut butter from 8 weeks of age
  prolongation of (median) disease-free survival: 10 weeks
Prodromal phase, 300–450 days of age
  fluctuations in rotarod motor performance: significantly reduced fluctuations in motor performance
